Active and inactive are the calls of the source. The rule behind the calls is not given here.
Assays:
[1] = target: Muscarinic acetylcholine receptor M3 (Homo sapiens) (UniProt P20309); assay: Agonist activity at muscarinic M3 receptor (unknown origin) at 1 uM; format: functional
How it was run: (§1)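 Each receptor was expressed separately in its own cell line, and compounds were added at 1 μM. Cells were seeded on biosensor plates and grown overnight to a confluent monolayer. They were then washed, kept in Hank's balanced salt solution, and equilibrated 1 h in the reader. After a 2 min baseline, the label-free dynamic mass redistribution (DMR) response was recorded immediately after compound addition.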

Sequences of proteins named here, by UniProt entry; tags and fusion partners are left off.
UniProt P20309, whole entry, looked up: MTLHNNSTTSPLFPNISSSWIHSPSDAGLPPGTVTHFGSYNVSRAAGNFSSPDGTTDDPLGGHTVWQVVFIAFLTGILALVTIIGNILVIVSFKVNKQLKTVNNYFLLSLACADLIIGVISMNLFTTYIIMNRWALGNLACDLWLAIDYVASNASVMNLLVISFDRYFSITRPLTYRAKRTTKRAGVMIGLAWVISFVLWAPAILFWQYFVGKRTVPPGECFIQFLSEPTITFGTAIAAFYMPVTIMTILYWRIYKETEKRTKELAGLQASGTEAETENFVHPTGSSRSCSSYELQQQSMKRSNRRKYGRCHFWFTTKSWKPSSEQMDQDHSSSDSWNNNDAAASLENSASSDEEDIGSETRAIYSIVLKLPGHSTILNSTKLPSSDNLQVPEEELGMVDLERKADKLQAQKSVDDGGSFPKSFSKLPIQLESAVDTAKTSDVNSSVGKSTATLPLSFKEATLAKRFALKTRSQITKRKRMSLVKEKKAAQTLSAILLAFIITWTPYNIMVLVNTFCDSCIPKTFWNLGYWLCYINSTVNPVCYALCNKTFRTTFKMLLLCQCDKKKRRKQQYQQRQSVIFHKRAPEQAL
UniProt P14416, whole entry: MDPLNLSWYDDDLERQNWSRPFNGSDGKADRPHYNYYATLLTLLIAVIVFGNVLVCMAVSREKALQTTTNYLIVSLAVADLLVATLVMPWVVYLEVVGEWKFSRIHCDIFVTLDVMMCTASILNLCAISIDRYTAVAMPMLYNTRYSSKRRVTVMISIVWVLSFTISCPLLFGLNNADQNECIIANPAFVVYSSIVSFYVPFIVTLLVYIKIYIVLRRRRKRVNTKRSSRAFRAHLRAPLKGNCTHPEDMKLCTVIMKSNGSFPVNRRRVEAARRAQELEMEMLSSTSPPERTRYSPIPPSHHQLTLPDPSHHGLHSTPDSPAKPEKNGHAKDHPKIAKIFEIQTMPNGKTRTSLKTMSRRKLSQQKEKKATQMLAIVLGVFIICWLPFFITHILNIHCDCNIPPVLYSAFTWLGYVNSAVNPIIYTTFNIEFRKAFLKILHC
UniProt P35372, whole entry: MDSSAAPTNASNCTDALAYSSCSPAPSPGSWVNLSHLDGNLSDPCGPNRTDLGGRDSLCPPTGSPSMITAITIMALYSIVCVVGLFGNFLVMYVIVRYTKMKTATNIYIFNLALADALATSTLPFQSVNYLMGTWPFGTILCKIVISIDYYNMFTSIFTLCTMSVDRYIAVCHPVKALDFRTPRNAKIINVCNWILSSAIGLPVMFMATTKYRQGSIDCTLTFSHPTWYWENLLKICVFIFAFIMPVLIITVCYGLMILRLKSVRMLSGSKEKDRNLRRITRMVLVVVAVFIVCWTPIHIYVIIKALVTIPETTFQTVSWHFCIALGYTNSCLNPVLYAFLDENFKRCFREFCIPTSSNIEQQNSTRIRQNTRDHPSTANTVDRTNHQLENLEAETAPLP

[2] = target: D(2) dopamine receptor (Homo sapiens) (UniProt P14416); assay: Agonist activity at dopamine D2 receptor (unknown origin) at 1 uM; format: functional; how it was run: as §1
[3] = target: Mu-type opioid receptor (Homo sapiens) (UniProt P35372); assay: Agonist activity at mu-opioid receptor (unknown origin) at 1 uM; format: functional; how it was run: as §1
[4] = target: T1, Free fatty acid receptor 4 (Homo sapiens) (UniProt Q5NUL3); assay: Agonist activity at FFA4 receptor (unknown origin) at 1 uM; format: functional; how it was run: as §1
T1 sequence (whole entry): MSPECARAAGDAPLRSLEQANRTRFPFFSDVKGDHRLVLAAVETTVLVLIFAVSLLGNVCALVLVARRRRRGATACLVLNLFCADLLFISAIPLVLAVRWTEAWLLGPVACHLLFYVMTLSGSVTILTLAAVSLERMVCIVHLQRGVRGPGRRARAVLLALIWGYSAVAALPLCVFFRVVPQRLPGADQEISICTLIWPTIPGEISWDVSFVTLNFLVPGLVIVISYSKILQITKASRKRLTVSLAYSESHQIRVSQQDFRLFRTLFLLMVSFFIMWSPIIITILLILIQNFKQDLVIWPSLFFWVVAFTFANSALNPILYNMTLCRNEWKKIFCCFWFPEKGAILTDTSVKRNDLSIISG

[5] = target: Histamine H1 receptor (Homo sapiens) (UniProt P35367); assay: Agonist activity at histamine H1 receptor receptor (unknown origin) at 1 uM

Row | Activity [1] | Activity [2] | Activity [3] | Activity [4] | Activity [5] | SMILES
1 | inactive | inactive | inactive | inactive | inactive | O=C(O)c1cc2c3ccccc3c3cc(C(=O)O)c(=O)oc3c2oc1=O
2 | inactive | inactive | inactive | inactive | inactive | COc1ccc(-c2c3oc(=O)c(C(=O)O)cc3cc3cc(C(=O)O)c(=O)oc23)cc1
3 | inactive | inactive | inactive | inactive | inactive | O=C(O)c1cc2cc3cc(C(=O)O)c(=O)oc3c(Br)c2oc1=O

From ChEMBL document CHEMBL4834401, “Structure-Activity Relationship Studies of Coumarin-like Diacid Derivatives as Human G Protein-Coupled Receptor-35 (hGPR35) Agonists and a Consequent New Design Principle” (J Med Chem, 2021)
